## Binding of CDR-mutated scFvs to a peptide of the spike HR2 region

The target is the same throughout: PDVDLGDISGINAS, from the HR2 region of SARS-CoV-2 spike.

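Phage display of a naive human antibody library on the peptide gave the parent. These sequences belong to a second round, designed from the earlier measurements on random variants of the parent. Group labels follow the data file (Ctrl: baseline library sampled from a position-specific scoring matrix, with some repeated check sequences; Rand: our label for a block that the file lists under HC and that is probably the random mutants of the ten best first-round binders; En: ensemble of fine-tuned language models; GP: Gaussian process model; GPLM: also part of the Gaussian process libraries; HC: hill climbing; Gen: genetic algorithm; Gibbs: Gibbs sampling; a sequence that several methods proposed may carry one label only). The scFvs were displayed on barcoded MATa yeast, the peptide on MATalpha yeast. The frequency of each diploid, read from paired DNA barcodes, reflects how well the two displayed proteins bind. A regression on co-assayed BCL2-family reference pairs converts the normalised counts of each replicate to an apparent Kd. There are six technical replicates.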

Each scFv is VH, a (GGGGS)3 linker, VL, as in the parent Ab-14, and differs from it in the CDRs of the heavy chain only.
VH: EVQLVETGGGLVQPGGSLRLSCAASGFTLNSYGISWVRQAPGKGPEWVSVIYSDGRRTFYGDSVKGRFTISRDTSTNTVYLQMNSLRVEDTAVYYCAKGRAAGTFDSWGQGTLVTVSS
VL: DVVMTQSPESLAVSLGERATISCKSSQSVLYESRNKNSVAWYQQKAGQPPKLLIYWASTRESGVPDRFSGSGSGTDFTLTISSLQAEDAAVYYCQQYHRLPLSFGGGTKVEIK

Each variant is given by its three heavy chain CDRs, as the data file delimits them; those of the parent are GFTLNSYGIS, VIYSDGRRTFYGDSVK, GRAAGTFDS.
Values are apparent Kd, the geometric mean of the replicates that gave a signal; lower means stronger binding.
"no signal" marks a missing value. The strain was present, yet no cells mated with the target were sequenced in any replicate, which points to weak or no binding.
Values of this round are not directly comparable with the first-round values of the same sequences.
Of ten entries with the parent sequence, four were seen in most replicates (averages 2.2 nM to 240 nM), three in one and three in none, so single entries are noisy.
Three control strains display no target. For all heavy chain designs, 1% of the pairings with them gave a signal, with a median of 120 nM and one signal in twenty below 7.0 nM, so weak values seen in few replicates may be background. For each scFv, signals with the empty controls are counted beside the result.
The authors' rule: three or more of the six replicates give a measured affinity, fewer mean a poor binder.

CDR-H1 | CDR-H2 | CDR-H3 | group | Kd | detected | control signals
GETINSYGIS | VIYSDGRRTFYLDSVK | GFAAGTWDS | Ctrl | no signal | 0 of 6 | 0 of 18
GFDLDEYGIS | VIYADGKRTAYAESVK | GENAGTFDV | En_Gen | 430 pM | 6 of 6 | 0 of 18
GFTLNQYAIS | VIYSDGRETFYSDSVK | GPAAGFFQS | Rand | no signal | 0 of 6 | 0 of 18
GFTLNSYGIS | VIYSDGFRTFYGDSVK | GRAAGTFDV | Ctrl | 78 nM | 1 of 6 | 1 of 18
GNNLDEYGIS | VIYADGQRSAYAQDVK | GKTGDNAFI | En_Gibbs | no signal | 0 of 6 | 0 of 18
GFEIQEYGIS | VIYADGRRTAYAENVK | GTLGGTFLT | En_Gibbs | 5.2 nM | 5 of 6 | 0 of 18
GFDLNSYGIS | VIYSDGRRTFYGDSVK | GKAAGIFDS | GP_HC | no signal | 0 of 6 | 0 of 18
GFTLNEYGIS | VIYSDGRRTFYTYSVK | GRFAGTFDS | Rand | no signal | 0 of 6 | 0 of 18
EFTLNSYGIS | VIYADGRRTFYGDSVK | GEAAGTFDS | GPLM_Gen | 1.2 nM | 6 of 6 | 1 of 18
GFTLNSYSIS | VIYSDGRRTFYHDDVK | IRAAGTFDS | Ctrl | no signal | 0 of 6 | 0 of 18
GFYLNDYGIS | VIYSDGRRTFYGDSVK | GRQAGTFIS | GP_HC | 31 nM | 2 of 6 | 0 of 18
GFDLDEYGVS | VIYADGMRSKYADSVK | GTTGGTIEA | En_Gibbs | 1.6 µM | 1 of 6 | 0 of 18
GFDLNEYGIS | VIYADGQRTSYADSVK | GEVAGTFDV | En_Gen | 33 nM | 5 of 6 | 0 of 18
GFELNDYGIS | VIYSDGRRTFYMDSVK | GRTAGTFDS | GP_Gen | 2.8 nM | 6 of 6 | 0 of 18
GFTLNSYGIS | VIYADGRRTFYGDSVK | GWAAGTFDK | GP_Gen | 31 nM | 4 of 6 | 0 of 18
GFSLNSYGIS | VIYSDGRRTFYVDDVK | GNAAGTFDS | GPLM_Gibbs | 500 pM | 6 of 6 | 0 of 18
GFDLDEYGIS | VIYADGMRTAYTDSVK | GNVAGTFDA | En_Gen | 650 pM | 6 of 6 | 0 of 18
GFNLDEYGIS | VIYADGMRTAYADSVK | GNVAGTFDI | En_Gen | 450 pM | 6 of 6 | 1 of 18
GFDLNEYGIS | VIYADGVRTAYIDSVK | GNQAGTFDQ | En_HC | 630 pM | 6 of 6 | 1 of 18
GFDLSEYGIS | VIYADGMRTAYADSVK | GNQAGTFDV | En_Gen | 510 pM | 6 of 6 | 1 of 18
GFDLNEYGIS | VIYADGRRKAYADSVK | GENAGTFDV | En_Gen | 1.5 nM | 6 of 6 | 0 of 18
GFDLDEYGIS | VIYADGKRTAYADSVK | GNTAGTFDM | En_Gen | 360 pM | 3 of 6 | 0 of 18
GFTLNSYGIS | VIYSDGRRTFYDDSVK | GQVSGTFDS | GP_HC | 130 nM | 4 of 6 | 0 of 18
GCTLNSYGIS | VIYRDGRRTFYIDSVK | GRAMGTFSS | Ctrl | no signal | 0 of 6 | 0 of 18
GFELNSYGIS | VIYSDGRRTFYQDSVK | GRTAGTFDV | GP_Gibbs | 3.5 nM | 6 of 6 | 0 of 18
GFSLNEYGIS | VIYSDGRRTFYGDRVK | GRNAGTFDS | GP_Gen | 1.5 nM | 6 of 6 | 0 of 18
GFTLNDYGIS | VIYSDGFRTFYGDSVK | GRAAGTADS | Ctrl | no signal | 0 of 6 | 0 of 18
KFNLNSYGIS | VIYSDGRRTFYADSVK | GRMAGTFDS | GPLM_Gibbs | 85 nM | 5 of 6 | 1 of 18
GPNLEEYGIS | VIYADGIRTAYKDSVK | GDVAGIGDF | En_Gibbs | no signal | 0 of 6 | 0 of 18
GFDLNEYGIS | VIYADGIRTAYADSVK | GETAGTFDQ | En_HC | 1.0 nM | 6 of 6 | 1 of 18
GFDLNEYGIS | VIYADGSRTAYADSVK | GTNAGTFDV | En_Gen | 31 nM | 6 of 6 | 0 of 18
GFTLNEYGIS | VIYSDGRRTFYGDMVK | GRAAVTFDQ | GPLM_HC | no signal | 0 of 6 | 0 of 18
GFNLDEYGIS | VIYADGRRTFYADSVK | GQVAGTFLL | En_HC | 320 pM | 6 of 6 | 1 of 18
GFSLNEYGIS | VIYSDGRRTFYTDSVK | GRQAGTFDS | GPLM_Gibbs | 4.1 nM | 6 of 6 | 1 of 18
GFTLNDYGIS | VIYSDGRRTEYSDSVK | GRAAGTFDS | GPLM_HC | 43 nM | 6 of 6 | 2 of 18
GQSLDEYGIS | VIYADGQRKAYMDSVK | GNGQGTLFD | En_Gibbs | no signal | 0 of 6 | 0 of 18
GFDLEDYGIS | VIYADGVRTAYADSVK | GENAGTFDV | En_Gen | 3.0 nM | 6 of 6 | 0 of 18
GFTLNEYGIS | VIYSDGFRTFYGDSVK | GRAAGTFDQ | GP_HC | 30 nM | 4 of 6 | 0 of 18
GFDLDEQGIS | VIYADGQRTAYADQVK | GMNGVIART | En_Gibbs | no signal | 0 of 6 | 1 of 18
GFTLESYGIS | VIYADGHRTFYSDSVK | GSAAGNFDS | Ctrl | no signal | 0 of 6 | 0 of 18
GFDLDEYGIS | VIYADGRRTAYQDSVK | GNVAGTFDS | En_HC | 100 pM | 6 of 6 | 0 of 18
EFTLNSYGIS | VIYSDGRRTFYDDSVK | GQLAGTFDS | GPLM_HC | 98 nM | 6 of 6 | 0 of 18
GFTLNSYGIS | VIYSDGRRTFYGDSVK | GRPAGLFDE | Ctrl | no signal | 0 of 6 | 0 of 18
GFDLNSYGIS | VIYSDGKRTFYSDSVK | GRAAGTFDS | GP_Gen | 72 nM | 1 of 6 | 0 of 18
GFELNSYGIS | VIYADGRRTFYGDSVK | GEAAGTFDA | GP_Gen | 4.6 nM | 6 of 6 | 0 of 18
GFDLDEYGIS | VIYADGKRTFYIDSVK | GETAGTFDS | En_HC | 140 pM | 6 of 6 | 0 of 18
GFDLNEYGIS | VIYADGVRTSYADSVK | GEAAGTFDV | En_HC | 58 nM | 5 of 6 | 0 of 18
GFTLNDYGIS | VIYSDGRRTFYGDSVK | GRAADTFDS | Ctrl | no signal | 0 of 6 | 0 of 18
GFTLNSYGIS | VIYSDGRRTFYGDSVK | GKAIGHFDS | Ctrl | no signal | 0 of 6 | 0 of 18
GFDLDEYGIS | VIYADGKRTAYADSVK | GETAGTFDL | En_Gen | 210 pM | 6 of 6 | 0 of 18
GFSLNSYGIS | VIYADGRRTFYGDSVK | GVAAGTFDS | GPLM_Gen | 690 pM | 6 of 6 | 1 of 18
GKDLDEYGIS | VIYADGMRTFYLNTVK | GEDGGDLNQ | En_Gibbs | no signal | 0 of 6 | 0 of 18
GFTLNSYGIS | VIYSDGRRTFYGDAVK | GRAAGYFDS | Ctrl | 100 nM | 3 of 6 | 0 of 18
GFDLNEYGIS | VIYADGRRTFYSDSVK | GEIAGTFIQ | En_HC | 430 pM | 6 of 6 | 0 of 18
GFTLNSYGIS | VIYSDGRRTFYTDSVK | GQEAGTFDS | GPLM_HC | 1.4 nM | 6 of 6 | 0 of 18
GFTLNEYGIS | VIYSDGWRTFYHDSVK | GRAAGTFTS | GP_HC | 470 nM | 1 of 6 | 0 of 18
GFELNSYGIS | VIYSDGRRTFYQDSVK | GRTAGTFDS | GPLM_Gen | 700 pM | 6 of 6 | 0 of 18
GFDINEYGIS | VIYADGRRTFYTDSVK | GQNAGTFDV | En_HC | 490 pM | 6 of 6 | 0 of 18
GDSLDEYGIS | VIYADGQRVQYVDPVK | GIQAGNVDV | En_Gibbs | no signal | 0 of 6 | 0 of 18
GFDLNEYGIS | VIYADGMRTFYADSVK | GETAGTFDQ | En_Gen | 2.2 nM | 6 of 6 | 0 of 18
GFDLNEYGIS | VIYADGKRTAYSDDVK | GNVAGTFDL | En_Gen | 410 pM | 6 of 6 | 0 of 18
GFVLNEYGIS | VIYSDGRRTFYGDSVK | GTAAGTFDS | GP_Gibbs | 12 nM | 6 of 6 | 0 of 18
GFPLNSYGIS | VIYSDGRRTAYGDQVK | GRAAGTFDS | Ctrl | 1.1 nM | 3 of 6 | 0 of 18
GFNLNSYGIS | VIYSDGRRTFYGDSVK | GKEAGTFDT | GPLM_Gibbs | 2.2 nM | 6 of 6 | 0 of 18
GFDLNEYGIS | VIYADGMRTAYADDVK | GNEAGTFDT | En_Gen | 610 pM | 6 of 6 | 0 of 18
GFDLNEYGIS | VIYADGMRTFYSDSVK | GENAGTFDI | En_Gen | 2.7 nM | 6 of 6 | 1 of 18
GFDLNEYGIS | VIYADGRRTAYIDSVK | GNQAGTFDS | En_HC | 430 pM | 6 of 6 | 0 of 18
GFELNSYGIS | VIYSDGRRTFYIDDVK | GQTAGTFDS | GP_Gibbs | 1.8 nM | 6 of 6 | 2 of 18
GFDLNEYGIS | VIYADGRRTFYIDSVK | GEIAGTFTV | En_HC | 430 pM | 6 of 6 | 0 of 18
GFDLDEYGIS | VIYADGSRTAYSDSVK | GQNAGTFDV | En_Gen | 710 pM | 6 of 6 | 1 of 18
GFELNSYGIS | VIYSDGRRTFYGDSVK | GRNKGTFDS | Ctrl | no signal | 0 of 6 | 0 of 18
GFTLNEYGIS | VIYSDGRRTFYSDSVK | GHAAGTFDK | GP_HC | 78 pM | 2 of 6 | 0 of 18
GFQLNEYGIS | VIYSDGRRTFYGDQVK | GQAAGTFDE | GP_Gibbs | 7.5 nM | 6 of 6 | 1 of 18
GFWLNEYGIS | VIYSDGRRTFYGDSVK | GRTAGTFDY | GP_Gibbs | 12 nM | 1 of 6 | 1 of 18
GFSLNNYGIS | VIYSDGRRTFYGDSVK | GQAAGTFDK | GPLM_Gen | 4.3 nM | 6 of 6 | 0 of 18

Values reported by Li et al. 2023, doi:10.1038/s41467-023-39022-2 (FLAb copy).